Assay results published in patent US9062078B2, “Substituted 7-azabicyles and their use as orexin receptor modulators” (priority 2013, dated 2015).
Where two headings read alike, the source gives them in different places.

Amino acid sequences for entries named in this document (tags omitted).
UniProt O43613, whole entry: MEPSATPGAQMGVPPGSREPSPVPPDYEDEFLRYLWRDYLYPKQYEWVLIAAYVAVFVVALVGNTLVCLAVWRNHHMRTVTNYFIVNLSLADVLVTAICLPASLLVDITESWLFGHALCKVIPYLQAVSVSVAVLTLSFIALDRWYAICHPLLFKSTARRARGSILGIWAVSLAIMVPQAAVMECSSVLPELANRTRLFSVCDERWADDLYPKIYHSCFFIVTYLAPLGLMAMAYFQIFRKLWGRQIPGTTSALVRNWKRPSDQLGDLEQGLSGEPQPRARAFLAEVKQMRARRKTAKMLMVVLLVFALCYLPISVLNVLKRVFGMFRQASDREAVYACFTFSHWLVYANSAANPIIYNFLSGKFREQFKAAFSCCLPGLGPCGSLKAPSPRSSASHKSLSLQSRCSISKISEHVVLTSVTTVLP

Experiments:
rat orexin 1 receptor = rat orexin 1 receptor (Rattus norvegicus, UniProt P56718); assay: Rat orexin 1 receptor radioligand binding (competitive, [3H]-SB674042, HEK293 cell preparations)
human orexin 1 receptor = human orexin 1 receptor (Homo sapiens (Human), UniProt O43613); assay: Human orexin 1 receptor radioligand binding (competitive, [3H]-SB674042, CHO cell preparations); details: read-out: hOX1 Ki (nm)

Structure (SMILES)	Ki (rat orexin 1 receptor; read-out: rOX1 Ki (nm)) [µM]	other results
Cc1ccc(-n2nccn2)c(C(=O)N2C3CCC2C(COc2ccc(F)cn2)C3)n1 (racemic) [Example 7, (±)-(2-(((5-fluoropyridin-2-yl)oxy)methyl)-7-azabicyclo[2.2.1]heptan-7-yl)(6-methyl-3-(2H-1,2,3-triazol-2-yl)pyridin-2-yl)methanone]		Ki (rat orexin 1 receptor; rOX1 Ki (nm)): 0.019 µM
Cc1ccc(-n2nccn2)c(C(=O)N2C3CCC2C(COc2ccc(F)cn2)C3)n1 (racemic) [Example 111, (±)-(2-(((5-fluoropyridin-2-yl)oxy)methyl)-7-azabicyclo[2.2.1]heptan-7-yl)(6-methyl-3-(2H-1,2,3-triazol-2-yl)pyridin-2-yl)methanone]	0.019	
COc1c(F)cccc1C(=O)N1C2CCC1C(COc1ccc(F)cn1)C2 (racemic) [Example 173, (±)-(3-fluoro-2-methoxyphenyl)(2-(((5-fluoropyridin-2-yl)oxy)methyl)-7-azabicyclo[2.2.1]heptan-7-yl)methanone]		Ki (rat orexin 1 receptor; rat orexin 1 receptor, [3H]-SB674042 competition binding, read-out: rOX1 Ki (nm)): 1.26 µM
Cc1ccc(-n2nccn2)c(C(=O)N2[C@@H]3CC[C@H]2[C@H](COc2ccc(F)cn2)C3)n1 [Example 8A, ((1S,2R,4R)-2-(((5-fluoropyridin-2-yl)oxy)methyl)-7-azabicyclo[2.2.1]heptan-7-yl)(6-methyl-3-(2H-1,2,3-triazol-2-yl)pyridin-2-yl)methanone]		Ki (rat orexin 1 receptor; rOX1 Ki (nm)): 0.009 µM
Cc1ccc(-n2nccn2)c(C(=O)N2[C@H]3CC[C@@H]2[C@@H](COc2ccc(F)cn2)C3)n1 [Example 8B, ((1R,2S,4S)-2-(((5-fluoropyridin-2-yl)oxy)methyl)-7-azabicyclo[2.2.1]heptan-7-yl)(6-methyl-3-(2H-1,2,3-triazol-2-yl)pyridin-2-yl)methanone]	> 10	
Cc1noc(-c2c(F)cccc2C(=O)N2[C@@H]3CC[C@H]2[C@H](Nc2cnc(C(F)(F)F)cn2)C3)n1 [Example 254, (3-fluoro-2-(3-methyl-1,2,4-oxadiazol-5-yl)phenyl)((1S,2R,4R)-2-((5-(trifluoromethyl)pyrazin-2-yl)amino)-7-azabicyclo[2.2.1]heptan-7-yl)methanone]	0.023	
Cc1cccc(C(=O)N2[C@@H]3CC[C@H]2[C@H](Nc2cnc(C(F)(F)F)cn2)C3)c1-c1ncccn1 [Example 273, (3-methyl-2-(pyrimidin-2-yl)phenyl)((1S,2R,4R)-2-((5-(trifluoromethyl)pyrazin-2-yl)amino)-7-azabicyclo[2.2.1]heptan-7-yl)methanone]		Ki (human orexin 1 receptor): 0.012 µM
Cc1cccc(C(=O)N2[C@@H]3CC[C@H]2[C@H](Nc2ncc(C(F)(F)F)cn2)C3)c1-c1ncccn1 [Example 281, (3-methyl-2-(pyrimidin-2-yl)phenyl)((1S,2R,4R)-2-((5-(trifluoromethyl)pyrimidin-2-yl)amino)-7-azabicyclo[2.2.1]heptan-7-yl)methanone]	0.021	
